US20080287478A1 (priority 2003, published 2008)

System: male NMRI mice
Test: Gridshock test (pain threshold, CNS effect)
Settings: i.v.; for time to death after injection: at the lethal dose stated for the compound

| SMILES | time to death after injection | dose at which statistical significant analgesia was observed (gridshock) | dose at which statistical significant analgesia was observed at 15 and 30 minutes (gridshock, at 15 and 30 minutes) |
| --- | --- | --- | --- |
| CC(C)[C@H]1CC[C@@H](N2CCC3(CC2)C(=O)N(CCCCCCCCCNCCNCCNCCNCCN)CN3c2ccccc2)CC1 (relative stereo) | approximately 2 minutes | – | – |
| CC(C)[C@H]1CC[C@@H](N2CCC3(CC2)C(=O)N(CCCCCCCCCN2CCCNCCNCCCNCC2)CN3c2ccccc2)CC1 (relative stereo) | approximately 2 minutes | 5000 mmol/kg | – |
| CC(C)[C@H]1CC[C@@H](N2CCC3(CC2)C(=O)N(CCCCCCCCCN(C)C)CN3c2ccccc2)CC1 (relative stereo) | immediately | – | 10000 nmol/kg |
